Reference: ChEMBL document CHEMBL4610129, “Discovery of Novel Selective and Orally Bioavailable Phosphodiesterase-1 Inhibitors for the Efficient Treatment of Idiopathic Pulmonary Fibrosis” (J Med Chem, 2020)

By UniProt entry, the sequences of proteins in these tests, tags left out. Where a name states a change or a piece, a line headed by the entry shows the natural chain unless it says otherwise.
UniProt Q14123, whole entry: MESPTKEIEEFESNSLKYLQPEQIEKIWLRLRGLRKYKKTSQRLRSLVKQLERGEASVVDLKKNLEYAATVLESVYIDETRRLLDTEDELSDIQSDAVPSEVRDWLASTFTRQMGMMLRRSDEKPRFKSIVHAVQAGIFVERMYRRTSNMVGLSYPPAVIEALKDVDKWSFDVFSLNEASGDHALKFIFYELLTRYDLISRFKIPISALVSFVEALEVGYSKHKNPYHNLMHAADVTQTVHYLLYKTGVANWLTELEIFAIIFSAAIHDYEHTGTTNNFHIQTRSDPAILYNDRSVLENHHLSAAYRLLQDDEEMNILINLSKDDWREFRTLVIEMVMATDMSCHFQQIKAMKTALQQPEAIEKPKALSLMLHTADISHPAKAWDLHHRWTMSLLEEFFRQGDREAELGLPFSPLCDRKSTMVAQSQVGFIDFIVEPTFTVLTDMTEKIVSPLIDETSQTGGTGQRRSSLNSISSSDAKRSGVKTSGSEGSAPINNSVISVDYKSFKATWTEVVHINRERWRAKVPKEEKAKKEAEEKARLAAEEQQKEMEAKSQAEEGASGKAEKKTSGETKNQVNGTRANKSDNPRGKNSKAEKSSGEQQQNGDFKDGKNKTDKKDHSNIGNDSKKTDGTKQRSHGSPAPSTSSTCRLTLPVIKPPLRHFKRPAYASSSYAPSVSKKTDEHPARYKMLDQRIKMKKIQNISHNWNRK
UniProt O76083: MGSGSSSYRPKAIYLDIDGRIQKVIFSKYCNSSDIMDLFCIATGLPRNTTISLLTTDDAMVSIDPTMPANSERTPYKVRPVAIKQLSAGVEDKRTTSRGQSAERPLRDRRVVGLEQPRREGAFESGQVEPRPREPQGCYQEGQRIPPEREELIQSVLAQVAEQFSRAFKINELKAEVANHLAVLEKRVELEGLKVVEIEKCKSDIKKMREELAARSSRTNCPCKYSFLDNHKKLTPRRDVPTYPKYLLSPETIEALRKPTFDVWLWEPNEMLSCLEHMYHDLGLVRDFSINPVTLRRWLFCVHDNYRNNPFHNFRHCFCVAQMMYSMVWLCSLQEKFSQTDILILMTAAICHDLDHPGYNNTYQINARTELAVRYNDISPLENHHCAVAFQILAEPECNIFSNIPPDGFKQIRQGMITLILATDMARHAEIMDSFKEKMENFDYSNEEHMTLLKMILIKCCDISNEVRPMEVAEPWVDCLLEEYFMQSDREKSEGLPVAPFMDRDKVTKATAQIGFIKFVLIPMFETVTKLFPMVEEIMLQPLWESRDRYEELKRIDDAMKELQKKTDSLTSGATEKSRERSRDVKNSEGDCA

What was measured:
[1] = biological target: Dual specificity calcium/calmodulin-dependent 3',5'-cyclic nucleotide phosphodiesterase 1C (Homo sapiens, UniProt Q14123); assay: Inhibition of PDE1C2 (147 to 531 residues) (unknown origin) using [3H]-cGMP substrate incubated for 15 mins by liquid scintillation counting method
[2] = biological target: High affinity cGMP-specific 3',5'-cyclic phosphodiesterase 9A (Homo sapiens, UniProt O76083); assay: Inhibition of PDE9A (181 to 506 residues) (unknown origin) using [3H]-cGMP substrate incubated for 15 mins by liquid scintillation counting method

pIC50 [2] | Compound | pIC50 [1]
– | C[C@@H](Nc1nc2c(cnn2C(C)(C)C)c(=O)n1Cc1ccc(F)cc1)c1ccc(Cl)cc1 | 8.54
7.24 | C[C@@H](Nc1nc2c(cnn2C2CCCC2)c(=O)[nH]1)c1ccc(Cl)cc1 | –

pIC50: −log10 of the molar value.
